The values below are quoted from earlier work in US8653307B2, “Liphagal enantiomers and their derivatives and precursors, and enantioselective methods of making the same” (California Institute of Technology, priority 2011, dated 2014).

Amino acid sequences for entries named in this document (tags omitted).
UniProt P42336, whole entry: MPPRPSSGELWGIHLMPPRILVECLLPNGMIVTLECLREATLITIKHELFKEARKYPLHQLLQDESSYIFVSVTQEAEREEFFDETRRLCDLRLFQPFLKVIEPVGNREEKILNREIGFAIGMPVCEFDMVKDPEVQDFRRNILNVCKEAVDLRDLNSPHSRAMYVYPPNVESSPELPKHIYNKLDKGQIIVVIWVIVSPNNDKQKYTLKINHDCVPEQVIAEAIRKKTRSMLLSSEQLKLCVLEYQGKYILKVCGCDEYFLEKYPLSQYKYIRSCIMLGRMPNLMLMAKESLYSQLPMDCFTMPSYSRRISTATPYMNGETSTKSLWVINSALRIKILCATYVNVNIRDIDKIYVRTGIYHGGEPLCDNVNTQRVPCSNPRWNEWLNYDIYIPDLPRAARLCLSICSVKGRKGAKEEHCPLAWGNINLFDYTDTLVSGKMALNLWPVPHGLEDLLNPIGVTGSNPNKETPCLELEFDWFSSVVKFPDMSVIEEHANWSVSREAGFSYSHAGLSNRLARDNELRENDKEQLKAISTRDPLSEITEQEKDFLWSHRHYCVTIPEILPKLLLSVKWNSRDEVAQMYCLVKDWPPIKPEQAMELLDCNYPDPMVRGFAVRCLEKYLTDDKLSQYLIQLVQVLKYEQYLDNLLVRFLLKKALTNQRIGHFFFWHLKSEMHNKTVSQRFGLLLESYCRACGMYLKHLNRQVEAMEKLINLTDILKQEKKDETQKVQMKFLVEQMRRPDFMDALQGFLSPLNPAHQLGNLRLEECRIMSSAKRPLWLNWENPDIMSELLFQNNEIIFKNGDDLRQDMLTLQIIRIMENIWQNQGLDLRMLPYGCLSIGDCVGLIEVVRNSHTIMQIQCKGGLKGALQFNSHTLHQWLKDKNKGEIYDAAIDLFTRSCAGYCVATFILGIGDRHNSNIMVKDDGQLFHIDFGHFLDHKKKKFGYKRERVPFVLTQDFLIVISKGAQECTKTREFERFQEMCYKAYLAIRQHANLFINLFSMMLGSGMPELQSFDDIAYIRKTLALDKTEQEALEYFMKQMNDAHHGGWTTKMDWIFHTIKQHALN

This data set has as its target PI3Kα (Homo sapiens, UniProt P42336).

liphagal: the “potency against PI3Kα compared to any other PI3K” value is “at least 10 fold”. In addition, the 50% inhibitory concentration (IC50) (as a rule, the concentration that inhibits the measured activity by half) (read-out: IC50 against PI3Kα) is 0.1 µM.
